Measured values from patent EP1790337A2, “Methods and compounds for treating depression and other disorders” (priority 1998, dated 2000).

The chains behind the UniProt entries cited, without tags or fusion partners. Residues count along the entry.
UniProt H0WCX4, 1-619: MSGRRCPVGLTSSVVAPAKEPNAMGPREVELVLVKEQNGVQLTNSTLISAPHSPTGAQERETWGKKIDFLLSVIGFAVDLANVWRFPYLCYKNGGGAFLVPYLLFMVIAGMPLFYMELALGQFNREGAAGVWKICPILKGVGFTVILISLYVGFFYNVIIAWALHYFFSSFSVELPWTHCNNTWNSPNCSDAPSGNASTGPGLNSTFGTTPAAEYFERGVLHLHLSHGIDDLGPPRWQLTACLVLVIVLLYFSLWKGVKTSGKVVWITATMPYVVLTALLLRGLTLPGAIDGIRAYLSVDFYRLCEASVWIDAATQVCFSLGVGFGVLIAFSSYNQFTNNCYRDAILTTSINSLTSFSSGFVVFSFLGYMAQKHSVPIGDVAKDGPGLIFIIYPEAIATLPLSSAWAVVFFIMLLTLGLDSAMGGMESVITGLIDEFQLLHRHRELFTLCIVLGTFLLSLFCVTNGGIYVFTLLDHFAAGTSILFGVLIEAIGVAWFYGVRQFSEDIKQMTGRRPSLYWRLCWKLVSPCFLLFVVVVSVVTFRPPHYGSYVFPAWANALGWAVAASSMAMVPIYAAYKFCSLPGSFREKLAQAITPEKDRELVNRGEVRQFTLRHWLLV

Biological target: dopamine transporter site (Cavia porcellus, UniProt H0WCX4)
Assay: Dopamine reuptake inhibition assay ([3H]WIN 35428 binding, striatal membranes)
Design: species or system Guinea pig
Conditions: @ 100 nM (top number); read-out: DA Uptake, mean % inhibition

Compound CNCCC(Oc1ccc(C(F)(F)F)cc1)c1ccccc1 (stereo not shown) [Fluoxetine] has an inhibition at 0.1 µM of 0%.
